From PubChem BioAssay
HCMV NEC inh = cytomegalovirus nuclear egress complex inhibition | HTRF UL50-UL53 interaction, normalized percent inhibition | inhibition, % (no concentration beside the values) | 190,000 tested, 0.15% active; in the data active = inhibition above about 27%, passing the limit was not always enough
GIV Gai3 FP = inhibitors of GIV peptide binding to Galpha-i3, primary screen, biochemical, fluorescence polarization, FITC-GIV GBA peptide, rat Galphai3 | Guanine nucleotide-binding protein G(i) subunit alpha-3 (Rattus norvegicus), P08753 | 90 min; active compounds read low; scaled: aluminum fluoride 0%, vehicle 100% | 210,000 tested, 0.42% active | AID 1224905, 2016 | percent of control (FP), % (no concentration beside the values);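 active means replicate mean at 85% of control or lower, very high polarization wells dropped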;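 further: wells of about 15 µL received 100 nL stock; the first replicate is given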
GIV Gai FP conf = confirmation of inhibitors of GIV binding to rat Galpha-i3. shares compounds with GIV Gai3 FP. FITC-GIV peptide binding to Galphai3, fluorescence polarization; active compounds read low. fluorescence polarization, mP at 100 µM. 580 tested, 38% active. AID 1259350;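 active = inhibition score of 15 or more, meaning 100 minus mean polarization as percent of control over three replicates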;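 note: lower mP means peptide displaced from Galphai3 so more inhibition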
GIV-Gai AS conf = GIV-Galpha-i3 inhibition, AlphaScreen confirmation | shares compounds with GIV Gai3 FP | AlphaScreen Galphai3-GIV binding, purified proteins, 90 min; active compounds read low | AlphaScreen counts at 100 µM | 580 tested, 39% active | AID 1259351;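 active = inhibition score at or above a set limit, where the score is 100 minus the three-replicate mean percent of control signal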
* = called active by the depositor; · = not tested or not shown. The list is not random: actives were taken first. Their share in the collection is about 0.46%.

Protein sequences, listed by entry. Tags and fused reporters are not part of them.
Guanine nucleotide-binding protein G(i) subunit alpha-3 (Rattus norvegicus), P08753, UniProt P08753, whole entry, looked up: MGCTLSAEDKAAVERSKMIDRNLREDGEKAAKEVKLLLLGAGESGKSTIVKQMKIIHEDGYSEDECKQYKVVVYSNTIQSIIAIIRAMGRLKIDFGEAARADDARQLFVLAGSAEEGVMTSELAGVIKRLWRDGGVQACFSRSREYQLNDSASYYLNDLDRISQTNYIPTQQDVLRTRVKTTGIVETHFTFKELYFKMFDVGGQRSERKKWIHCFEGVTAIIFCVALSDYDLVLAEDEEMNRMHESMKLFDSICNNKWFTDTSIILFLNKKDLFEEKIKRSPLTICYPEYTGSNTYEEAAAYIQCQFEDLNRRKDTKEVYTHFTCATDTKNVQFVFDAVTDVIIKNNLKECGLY

# | SMILES | GIV Gai3 FP | HCMV NEC inh
1 | CCOc1ccc(-c2c(C#N)c(N)nc3sc(C(=O)Nc4ccc(Br)cc4)c(N)c23)cc1 | 86 | -16
2 | CC(=O)OCC(=O)Nc1nc2c(C)cc(C)cc2s1 | · | -10
3 | COC(=O)c1ccc(N2N=C(C)/C(=C/c3ccc(-c4cccc(C(=O)O)c4)o3)C2=O)cc1 | 86 | -20
4 | CCOC(=O)c1cccc(-c2ccc(/C=C3\C(=O)N(c4cccc(C(=O)O)c4)N=C3C)o2)c1 | 93 | -27
5 | O=C(c1ccccc1)c1ccc2nc(-c3ccccc3)c(-c3ccccc3)nc2c1 | 104 | ·
6 | CN(CC(=O)N1CCc2ccccc21)S(=O)(=O)c1ccc2c(c1)c(=O)n(C)c(=O)n2C | 104 | -5
7 | CCOC(=O)C1=C(C)N=c2s/c(=C\c3cc([N+](=O)[O-])ccc3N3CCOCC3)c(=O)n2C1c1cccc(OC)c1 (stereo not drawn) | 90 | -21
8 | CCOC(=O)C1=C(C)N=c2s/c(=C\c3cc([N+](=O)[O-])ccc3N3CCOCC3)c(=O)n2C1c1ccccc1 (stereo not drawn) | 97 | -3
9 | COC(=O)c1ccc(/C=N/c2c(-c3ccco3)nc3ccccn23)cc1 | 104 | -36
10 | N#Cc1c(NC(=O)C(F)(F)F)oc(-c2ccccc2)c1-c1ccccc1 | 93 | -67
11 | Cc1cc2c(NC(=O)CC(C)(C)CC(=O)O)cccc2nn1 | 98 | -37
12 | Cc1cc2c(NC(=O)COCC(=O)O)cccc2nn1 | 73* | -28

# | GIV-Gai AS conf | GIV Gai FP conf
1 | 51717 | 64
2 | · | ·
3 | 18724* | 56
4 | · | ·
5 | · | ·
6 | · | ·
7 | 56560 | 63
8 | · | ·
9 | · | ·
10 | · | ·
11 | · | ·
12 | 16084* | 55*

# | SMILES | GIV Gai3 FP | HCMV NEC inh
13 | CN(Cc1ccccc1)C(=O)c1cc2c(=O)[nH]c3ccccc3c2s1 | 87 | 0
14 | CCN(Cc1ccccc1)C(=O)c1cc2c(=O)[nH]c3ccc(C)cc3c2s1 | 103 | -13
15 | O=C(c1ccc(F)cc1F)C1CCN(S(=O)(=O)c2ccc(F)cc2F)CC1 | 108 | 3
16 | COCCn1c(=NC(=O)c2ccc3c(c2)OCCO3)sc2cc(NC(C)=O)ccc21 | 80* | ·
17 | CCOCCn1c(=NC(=O)c2ccc3c(c2)OCCO3)sc2cc(OCC)ccc21 | 104 | ·
18 | CC(C)OCCCNCc1ccc2c(c1)n(C)c(=O)n2C | 99 | -7
19 | CN(C)/C=C1\OC(=O)c2ccccc21 | 103 | -13
20 | CCOc1cc(C(c2c(C)[nH]n(-c3ccccc3)c2=O)c2c(C)[nH]n(-c3ccccc3)c2=O)ccc1O | 113 | 40
21 | Cc1[nH]n(-c2ccccc2)c(=O)c1C(c1cc(Cl)ccc1O)c1c(C)[nH]n(-c2ccccc2)c1=O | 100 | -23
22 | CCOc1cc(C(c2c(C)[nH]n(-c3ccccc3)c2=O)c2c(C)[nH]n(-c3ccccc3)c2=O)ccc1OCc1ccc(Cl)cc1 | 81* | ·
23 | Cc1ccc(C(c2c(C)[nH]n(-c3ccccc3)c2=O)c2c(C)[nH]n(-c3ccccc3)c2=O)cc1 | 107 | ·
24 | COc1ccc(C(c2c(C)[nH]n(-c3ccccc3)c2=O)c2c(C)[nH]n(-c3ccccc3)c2=O)cc1OC | 76* | ·

# | GIV-Gai AS conf | GIV Gai FP conf
13 | 48153 | 68
14 | · | ·
15 | · | ·
16 | 35824 | 80
17 | · | ·
18 | · | ·
19 | · | ·
20 | · | ·
21 | · | ·
22 | 31576 | 52*
23 | · | ·
24 | 4694* | 44*

# | SMILES | GIV Gai3 FP | HCMV NEC inh
25 | Cc1[nH]n(-c2ccccc2)c(=O)c1C(c1ccccc1O)c1c(C)[nH]n(-c2ccccc2)c1=O | 67* | ·
26 | COc1ccc(C(c2c(C)[nH]n(-c3ccccc3)c2=O)c2c(C)[nH]n(-c3ccccc3)c2=O)cc1 | 91 | ·
27 | Cc1[nH]n(-c2ccccc2)c(=O)c1C(c1ccc(F)cc1)c1c(C)[nH]n(-c2ccccc2)c1=O | 72* | ·
28 | O=C(O)c1cnn(-c2ccc(Cl)cc2)c1C1CCNCC1 | 104 | -22
29 | COc1cccc(C(=O)N2CCN3C(=O)[C@@H]4C[C@@H](O)CN4C(=O)[C@H]3C2)c1 | · | -10
30 | O=C(Nc1ccc(Sc2nc3ccccc3n3nnnc23)cc1)c1ccccc1Cl | 103 | ·
31 | O=C(CCSCc1cnn(-c2ccccc2)c1-n1cccc1)NC1CCCC1 | 103 | ·
32 | Cc1nc(N=Nc2cc(S(=O)(=O)O)c3cc([N+](=O)[O-])cc(S(=O)(=O)O)c3c2)c(COP(=O)(O)O)c(C=O)c1O | 17* | 34
33 | Clc1ccccc1-n1ncc2c(N3CCN(c4ccccc4)CC3)ncnc21 | 95 | ·
34 | Cc1cccc(NC(=O)Cn2ncc3c(=O)oc4ccccc4c32)n1 | 100 | 10
35 | CCOC(=O)c1c(-c2ccc(Br)cc2)csc1/N=C/c1c(C)[nH]n(-c2ccccc2)c1=O | 75* | -10
36 | CCOC(=O)c1c(-c2ccc(Br)cc2)csc1/N=C/C1C(=O)NC(=S)NC1=O | 90 | ·

# | GIV-Gai AS conf | GIV Gai FP conf
25 | 17967* | 64
26 | · | ·
27 | 24882* | 61
28 | · | ·
29 | · | ·
30 | · | ·
31 | · | ·
32 | 3265* | 53*
33 | · | ·
34 | · | ·
35 | 41072 | 68
36 | · | ·

# | SMILES | GIV Gai3 FP | HCMV NEC inh
37 | COc1ccc(C(=O)CSc2ccc3nnc(-c4ccccn4)n3n2)cc1 | 103 | 0
38 | CN(CC(=O)Nc1ccc(N2CCOCC2)cc1)CC(=O)Nc1cccc(Br)c1 | · | -6
39 | O=C(c1sc2ccccc2c1Cl)N1CCc2ccccc21 | · | 5
40 | Nc1c(C(=O)N2CCc3ccccc32)sc2nc(C(F)(F)F)c3c(c12)CCCC3 | 95 | ·
41 | CC1=CC(=C2C(=O)NC(=S)NC2=O)C=C(C)N1Cc1ccco1 | 73* | -29
42 | CC1=CC(=C2C(=O)N(c3ccccc3)N=C2C)C=C(C)N1Cc1ccco1 | · | 3
43 | CC1CN(CC(=O)Nc2c(Cl)cccc2Cl)CC(C)O1 (stereo not drawn) | · | 11
44 | CCOc1ccc(CC(=O)NCC(c2ccc3c(c2)CCCN3C)N2CCCC2)cc1 (stereo not drawn) | 105 | -13
45 | CN1CCCc2cc(CN)ccc21 | 69* | 0
46 | O=C(Nc1sc2c(c1C(=O)NCC1CCCO1)CCCC2)c1cc(=O)c2ccccc2o1 (stereo not drawn) | 101 | -16
47 | COC(=O)c1c(NC(=O)c2cc(=O)c3ccccc3o2)sc2c1CCCC2 | 125 | -21
48 | Cc1cnc(C(=O)OCC(=O)NCC2CCCCC2)cn1 | · | -18

# | GIV-Gai AS conf | GIV Gai FP conf
37 | · | ·
38 | · | ·
39 | · | ·
40 | 39316 | 75
41 | 2400* | 48*
42 | · | ·
43 | · | ·
44 | · | ·
45 | 4022* | 54*
46 | · | ·
47 | 43666 | 59
48 | · | ·

# | SMILES | GIV Gai3 FP | HCMV NEC inh
49 | Cc1cc(N2Cc3ccccc3C2)ccc1/C=C1/C(=O)NC(=O)N(C2CCCCC2)C1=O | 87 | ·
50 | Cc1ccc(/C=C2/C(=O)NC(=O)N(C3CCCCC3)C2=O)cc1 | 101 | -1
51 | Nc1c(C(=O)NCc2ccccc2)sc2nc(N3CCCC3)c3c(c12)CCCC3 | 108 | -1
52 | CCSc1nn(CC(=O)Nc2cc(C)cc(C)c2)c(N)c1S(=O)(=O)c1ccc(Cl)cc1 | 101 | -26
53 | CC1=CC(=C2N=C(c3ccccc3)OC2=O)C=C(C)O1 | 73* | -16
54 | O=C1OC(c2ccccc2)=N/C1=C1/OC(=O)c2ccccc21 | · | -20
55 | CCCOc1ccc(CNC(=O)C(NS(=O)(=O)c2cccs2)C(C)C)cc1 (stereo not drawn) | 84* | ·
56 | CC(C)C(NS(=O)(=O)c1cccs1)C(=O)NCc1cccnc1 (stereo not drawn) | 105 | 4
57 | COc1ccc(Br)cc1C1Nc2ccc3ncccc3c2C2=C1C(=O)CC(C)(C)C2 (stereo not drawn) | 107 | ·
58 | Oc1ccc(NCc2ccccc2OCc2ccc(Cl)cc2)cc1 | 104 | 26
59 | CCOc1cc(CNc2ccc(O)cc2)ccc1OCc1ccc(Cl)cc1 | 76* | 14

# | GIV-Gai AS conf | GIV Gai FP conf
49 | 48945 | 71
50 | · | ·
51 | · | ·
52 | · | ·
53 | 40445 | 72
54 | · | ·
55 | 35946 | 82
56 | · | ·
57 | · | ·
58 | · | ·
59 | 10130* | 61*
